Values quoted from earlier work as cited in patent US20230001221A1, “Methods of Treating Cancer with Alternating Electric Fields, Checkpoint Inhibitors, and Combination Chemotherapy” (Novocure GmbH, priority 2021, published 2023).

Tested on: human and murine pancreatic cancer cell lines
Details: in-vitro, TTFields combined with the chemotherapy

## O=c1[nH]cc(F)c(=O)[nH]1 [5-FU, fluorouracil]
  cytotoxicity when combined with TTFields: enhanced cytotoxicity
